# According to ChEMBL document CHEMBL1129590, “Tyrphostins. 6. Dimeric benzylidenemalononitrile tyrophostins: potent inhibitors of EGF receptor tyrosine kinase in vitro” (J Med Chem, 1996):
# By UniProt entry, the sequences of proteins in these tests, tags left out.
# UniProt P00533, whole entry: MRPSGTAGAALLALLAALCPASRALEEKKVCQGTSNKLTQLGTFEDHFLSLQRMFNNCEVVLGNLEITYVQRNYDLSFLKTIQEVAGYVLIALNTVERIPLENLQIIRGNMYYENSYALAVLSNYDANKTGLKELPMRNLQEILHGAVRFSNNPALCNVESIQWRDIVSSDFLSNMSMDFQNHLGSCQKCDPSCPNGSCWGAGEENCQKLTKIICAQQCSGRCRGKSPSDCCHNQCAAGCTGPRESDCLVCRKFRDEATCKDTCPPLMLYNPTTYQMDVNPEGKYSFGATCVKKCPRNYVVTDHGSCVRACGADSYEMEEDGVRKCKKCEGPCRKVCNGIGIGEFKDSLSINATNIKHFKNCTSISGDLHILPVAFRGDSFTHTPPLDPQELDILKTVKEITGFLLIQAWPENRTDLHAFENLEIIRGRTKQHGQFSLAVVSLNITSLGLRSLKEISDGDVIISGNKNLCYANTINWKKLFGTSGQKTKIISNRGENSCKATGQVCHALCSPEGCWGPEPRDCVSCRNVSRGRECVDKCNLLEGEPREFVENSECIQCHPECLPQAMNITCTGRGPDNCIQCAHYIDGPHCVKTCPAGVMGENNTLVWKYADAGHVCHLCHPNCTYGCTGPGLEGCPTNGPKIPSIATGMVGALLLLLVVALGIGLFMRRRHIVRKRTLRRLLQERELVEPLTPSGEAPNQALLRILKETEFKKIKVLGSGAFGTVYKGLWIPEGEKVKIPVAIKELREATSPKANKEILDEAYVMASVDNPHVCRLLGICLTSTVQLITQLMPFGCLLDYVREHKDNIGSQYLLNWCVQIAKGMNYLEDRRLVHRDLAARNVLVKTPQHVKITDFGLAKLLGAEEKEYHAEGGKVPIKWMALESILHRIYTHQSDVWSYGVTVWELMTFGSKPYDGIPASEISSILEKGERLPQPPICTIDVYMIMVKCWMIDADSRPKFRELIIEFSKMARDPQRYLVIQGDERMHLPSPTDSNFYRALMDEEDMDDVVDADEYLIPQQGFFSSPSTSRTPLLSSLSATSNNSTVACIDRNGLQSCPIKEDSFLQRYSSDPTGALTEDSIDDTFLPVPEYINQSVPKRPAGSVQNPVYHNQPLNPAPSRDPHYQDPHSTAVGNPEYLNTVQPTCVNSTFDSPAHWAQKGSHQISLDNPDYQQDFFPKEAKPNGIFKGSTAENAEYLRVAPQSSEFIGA
# How the values were obtained:
# [1] = molecular target: T1, Epidermal growth factor receptor (Homo sapiens, UniProt P00533); test: Inhibition of epidermal growth factor receptor (EGFR) phosphorylation of the exogenous substrate poly(Glu6, Ala3,Tyr) (polyGAT)
# [2] = molecular target: T1, Epidermal growth factor receptor; test: Inhibitory activity of compound against Epidermal growth factor receptor autophosphorylation
smiles,measurement,setting,value
N#C/C(=C\c1ccc(O)c(O)c1)C(=O)NCCCNC(=O)/C(C#N)=C/c1ccc(O)c(O)c1,IC50,[1],400 nM
same,IC50,[2],3300 nM
